This is an account of results in patent US8952008B2, “Chemical compounds” (Pfizer Limited, priority 2012, dated 2015).

By UniProt entry, the sequences of proteins in these tests, tags left out. Where a name states a change or a piece, a line headed by the entry shows the natural chain unless it says otherwise.
UniProt P47869: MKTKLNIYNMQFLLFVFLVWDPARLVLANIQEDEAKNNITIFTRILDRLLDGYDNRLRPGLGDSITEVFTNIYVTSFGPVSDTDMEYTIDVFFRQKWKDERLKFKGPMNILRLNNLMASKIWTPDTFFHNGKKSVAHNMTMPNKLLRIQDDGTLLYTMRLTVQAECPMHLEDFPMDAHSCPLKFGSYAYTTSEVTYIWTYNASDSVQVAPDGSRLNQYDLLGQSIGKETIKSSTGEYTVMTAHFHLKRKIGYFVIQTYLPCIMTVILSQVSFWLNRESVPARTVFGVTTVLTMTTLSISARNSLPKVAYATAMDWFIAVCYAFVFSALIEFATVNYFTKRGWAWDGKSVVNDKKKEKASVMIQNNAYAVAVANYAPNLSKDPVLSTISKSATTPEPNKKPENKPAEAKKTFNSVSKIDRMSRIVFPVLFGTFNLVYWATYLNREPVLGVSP
UniProt Q99928: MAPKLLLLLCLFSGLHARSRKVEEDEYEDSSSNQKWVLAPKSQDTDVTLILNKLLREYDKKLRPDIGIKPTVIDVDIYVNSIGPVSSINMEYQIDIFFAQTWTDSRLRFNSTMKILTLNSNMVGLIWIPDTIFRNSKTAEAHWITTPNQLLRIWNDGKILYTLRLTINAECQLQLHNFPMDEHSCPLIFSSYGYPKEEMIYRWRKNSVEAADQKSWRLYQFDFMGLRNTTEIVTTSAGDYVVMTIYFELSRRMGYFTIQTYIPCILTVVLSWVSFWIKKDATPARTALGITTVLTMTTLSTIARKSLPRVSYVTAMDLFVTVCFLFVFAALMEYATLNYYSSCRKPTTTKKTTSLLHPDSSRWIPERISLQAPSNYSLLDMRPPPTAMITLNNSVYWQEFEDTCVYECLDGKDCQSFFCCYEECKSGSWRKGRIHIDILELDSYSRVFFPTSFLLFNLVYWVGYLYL

pKi: −log10 of the molar value.
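Further: membranes from HEK cells expressing the receptor, incubated with radioligand to equilibrium, filter-bound radioactivity counted, Ki reported as geometric mean of replicate runs.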

The experiment addresses human recombinant GABA A receptor containing the alpha2, beta2, and gamma3 subunits (Homo sapiens, UniProt P47869+Q99928). Nature of the experiment: Radioligand competition binding assay with [3H]Ro-15-1788 (Flumazenil). (Loss of bound radioactivity is the signal in a displacement assay; it reports binding, not function.)
One may read the pKi as −log10 of the Ki, conventionally taken in molar units. As to `CCn1cnc2c(-c3ccc(F)c(-c4ccc(S(=O)(=O)C(C)C)cc4F)c3)cnnc21`, the pKi is 7.21.
In the case of `CCn1cnc2c(-c3ccc(F)c(-c4ccc(S(N)(=O)=O)cc4)c3)cnnc21` [Example 3, 5′-(7-Ethyl-7H-imidazo[4,5-c]pyridazin-4-yl)-2′-fluorobiphenyl-4-sulfonamide], the pKi was 8.29.
The result for `CCn1cnc2c(-c3ccc(F)c(-c4ccc(S(=O)(=O)NC)cc4)c3)cnnc21` [Example 8, 5′-(7-Ethyl-7H-imidazo[4,5-c]pyridazin-4-yl)-2′-fluoro-N-methylbiphenyl-4-sulfonamide] reads 8.13; that for `CCn1cnc2c(-c3ccc(F)c(-c4ccc(S(=O)(=O)CC)cc4C(F)F)c3)cnnc21` [Example 14, 4-(2′-(Difluoromethyl)-4′-(ethylsulfonyl)-6-fluoro-[1,1′-biphenyl]-3-yl)-7-ethyl-7H-imidazo[4,5-c]pyridazine], 7.45; that for `CCn1cnc2c(-c3ccc(O)c(-c4ccc(S(=O)(=O)CC)cc4OC)c3)cnnc21` [Example 48, 5-(7-Ethyl-7H-imidazo[4,5-c]pyridazin-4-yl)-4′-(ethylsulfonyl)-2′-methoxy-[1,1′-biphenyl]-2-ol], 7.04.
